Data published in PubChem BioAssay AID1963597 (National Center for Advancing Translational Sciences (NCATS), 2024).

System: human liver microsomes, metabolic stability half-life
Test: NCATS Human Liver Microsomal (HLM) Stability Profiling
Details: hits give high values
Text: Assay submitter (PI): Dr. Pranav Shah
NIH Center for Advancing Translational Sciences
Pharmacokinetic issues were the leading cause of drug attrition, accounting for approximately 40% of all cases before the turn of the century. To this end, several high-throughput in vitro assays like microsomal stability have been developed to evaluate the pharmacokinetic profiles of compounds in early stages of drug discovery. At NCATS, a single-point rat liver microsomal (RLM) stability assay is used as a Tier I assay, while human liver microsomal (HLM) stability is employed as a Tier II assay. While it is beneficial to have compound libraries screened for HLM stability, the increasing magnitude of hits routinely generated, and the time- and re-source-intensive nature of the assay makes it important to find alternatives. One strategy is to rely on in silico models that have been developed using data generated from these assays. Herein, we describe the development of an HLM stability prediction model using our in-house dataset of ~7,000 compounds, employing both traditional and advanced machine learning methods. […]
The substrate depletion method, also called the in vitro t1/2 method was used to analyze test compounds. […] Sample quantification and analysis was performed using a previously described method (Shah et al., 2016, Siramshetty et al., 2020). […]

`CC(=O)N1CCc2ccc(N(C(=O)/C=C/c3cccc(C#N)c3)C3CCN(CCC4CCCC4)CC3)cc21` showed a half-life of 11.2 min.
